Test results reported in ChEMBL document CHEMBL1148806, “Nitric oxide donor beta2-agonists: furoxan derivatives containing the fenoterol moiety and related furazans” (J Med Chem, 2007).

Test system: Liver microsomes
Experiment: Antioxidant activity in rat hepatic microsomal membrane

## CC(Cc1ccc(O)cc1)NCC(O)c1cc(O)cc(O)c1 (configuration not stated) [FENOTEROL]
  IC50: 229 µM

## CC(Cc1ccc(O)cc1)NCC(O)c1cc(O)cc(O)c1 (racemic) [FENOTEROL HBR]
  IC50: 215 µM
